Tested on: hyperlipidemia rat
Experiment: Effect of compound F on triglycerides and cholesterol in serum of hyperlipidemia rat
Assay type: in vivo
Conditions: dose 100 mg/kg
Protocol: Effect of compound F on the content of triglycerides and cholesterol in the serum of hyperlipidemia rat.
Male SD rats weighing 130-170 g were used. The normal group was given general feedstuff, and the other groups were given high-fat (1% cholesterol, 10% pig oil, 0.3% cholic acid, 0.2% methylthio imidazole and 88.5% normal feedstuff are made stuff by oneself). After the feedstuff is run for 14 days and the rats were forbidden to eat for 12 hours, the content of triglycerides and cholesterol in rat's serum was measured. Then, the rats were grouped randomly according to blood lipid value. The experiment group was given compound F (50, 100, 200 mg/kg.), the positive-control group was orally given clofibrate (100 mg/kg), and the control group was given distilled water. The volume of administration was, 10 ml/kg, lasting 10 days. Each group was given high-fat feedstuff in the first 5 days of giving drugs, and then general feedstuff in the next 5 days. Fasting of 11 hours is conducted before the last time of giving drugs. After giving drugs for 1 hour, blood was taken and the content of ester and cholesterol in the blood serum was measured.

Structure (SMILES): CCOC(=O)C(C)(C)Oc1ccc(Cl)cc1 [clofibrate]
- Total cholesterin, after administration (10 days): 2.15 ± 0.76 mmol/L
- triglycerides, after administration (10 days): 2.72 ± 0.74 mmol/L
- Total cholesterin, before administration (baseline): 4.33 ± 0.51 mmol/L
- triglycerides, before administration (baseline): 2.51 ± 0.77 mmol/L

— patent US6833443B1, “Gymnemic acid derivatives, process for the preparation thereof and use thereof as medicine” (Guilin Jiqi Pharmaceutical Co., Ltd., priority 1999, dated 2004)
